Amino acid sequences for entries named in this document (tags omitted). A change or cut given only in a name is not applied to a line headed by its entry.
UniProt P09482: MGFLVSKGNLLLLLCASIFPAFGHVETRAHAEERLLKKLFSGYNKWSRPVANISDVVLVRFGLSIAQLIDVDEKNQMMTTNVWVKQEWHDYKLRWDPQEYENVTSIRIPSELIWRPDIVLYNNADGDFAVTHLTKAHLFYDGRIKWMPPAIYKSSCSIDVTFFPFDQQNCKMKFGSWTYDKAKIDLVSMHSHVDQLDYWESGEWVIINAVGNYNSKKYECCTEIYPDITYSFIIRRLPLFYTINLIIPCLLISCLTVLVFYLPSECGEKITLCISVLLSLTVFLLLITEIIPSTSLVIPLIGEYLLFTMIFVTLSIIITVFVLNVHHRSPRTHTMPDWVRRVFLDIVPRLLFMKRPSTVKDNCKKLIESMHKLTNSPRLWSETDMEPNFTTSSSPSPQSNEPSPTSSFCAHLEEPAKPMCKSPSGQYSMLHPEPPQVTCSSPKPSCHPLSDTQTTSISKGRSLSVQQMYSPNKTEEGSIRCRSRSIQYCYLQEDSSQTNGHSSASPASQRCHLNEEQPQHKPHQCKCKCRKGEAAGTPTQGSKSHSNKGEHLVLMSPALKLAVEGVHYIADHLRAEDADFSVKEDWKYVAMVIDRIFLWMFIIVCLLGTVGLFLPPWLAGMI
UniProt P09484: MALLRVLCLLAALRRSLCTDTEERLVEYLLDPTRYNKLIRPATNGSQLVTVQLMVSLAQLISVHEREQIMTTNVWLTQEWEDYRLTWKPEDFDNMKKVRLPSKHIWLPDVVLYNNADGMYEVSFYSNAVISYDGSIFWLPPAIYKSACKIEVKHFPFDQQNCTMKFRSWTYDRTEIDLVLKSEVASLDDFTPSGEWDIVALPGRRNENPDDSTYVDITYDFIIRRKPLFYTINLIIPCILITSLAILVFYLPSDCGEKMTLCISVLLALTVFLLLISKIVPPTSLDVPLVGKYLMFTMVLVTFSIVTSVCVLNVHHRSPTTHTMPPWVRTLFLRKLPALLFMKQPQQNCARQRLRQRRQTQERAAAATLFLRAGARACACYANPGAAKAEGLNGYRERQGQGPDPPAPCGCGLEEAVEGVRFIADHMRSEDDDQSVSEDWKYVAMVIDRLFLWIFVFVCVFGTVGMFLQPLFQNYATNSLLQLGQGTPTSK

In ChEMBL document CHEMBL3045824, “Unique neonicotinoid binding conformations conferring selective receptor interactions” (J Agric Food Chem, 2011):

Molecular target: Neuronal acetylcholine receptor subunit alpha-4 (Gallus gallus, UniProt P09482+P09484)
Assay: Binding affinity to recombinant Gallus gallus (chicken) alpha4beta2 nicotinic acetylcholine receptor assessed as [3H]NIC binding by radioligand binding assay

## Clc1ccc(C2CC3CCC2N3)cn1 (racemic) [EPIBATIDINE]
  Ki: 0.01 nM
